In ChEMBL document CHEMBL4610026, “Design, synthesis and evaluation of protein disulfide isomerase inhibitors with nitric oxide releasing activity” (Bioorg Med Chem Lett, 2020) one finds IC50 data, which are given here for one compound.

Structures are written as SMILES. pIC50: −log10 of the molar value.

As usually defined, the pIC50 is the IC50 on a negative log10 scale, so that one unit is a factor of ten. Low readings indicate a large IC50, high ones a small IC50.

This experiment concerns the target T1, Protein disulfide-isomerase (Bos taurus, UniProt P05307).
T1 sequence (P05307 whole entry): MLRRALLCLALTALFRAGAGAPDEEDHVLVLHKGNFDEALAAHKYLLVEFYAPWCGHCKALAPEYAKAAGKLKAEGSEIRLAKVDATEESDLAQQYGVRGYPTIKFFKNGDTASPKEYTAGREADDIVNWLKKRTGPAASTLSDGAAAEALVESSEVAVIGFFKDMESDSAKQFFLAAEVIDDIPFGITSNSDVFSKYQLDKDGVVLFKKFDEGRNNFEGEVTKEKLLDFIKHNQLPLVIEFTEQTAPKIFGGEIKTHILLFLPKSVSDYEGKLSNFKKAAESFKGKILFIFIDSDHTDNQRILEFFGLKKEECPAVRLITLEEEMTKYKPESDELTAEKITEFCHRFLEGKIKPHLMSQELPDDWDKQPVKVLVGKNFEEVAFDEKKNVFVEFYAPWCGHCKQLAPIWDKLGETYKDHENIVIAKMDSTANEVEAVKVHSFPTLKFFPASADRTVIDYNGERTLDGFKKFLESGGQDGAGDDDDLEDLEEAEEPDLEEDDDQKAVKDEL
Put plainly: Irreversible inhibition of bovine PDI.

For `C#CCOC(=O)C1(C)c2[nH]c3ccccc3c2CCN1C(=O)CCl` (stereo unspecified), the pIC50 is 5.82.
